Source: ChEMBL document CHEMBL5241093, “Recent advances in the design and discovery of synthetic tyrosinase inhibitors” (Eur J Med Chem, 2021)

Tests used:
Tyrosinase [1] = biological target: T1, Tyrosinase (Agaricus bisporus, UniProt O42713); test: Inhibition of mushroom tyrosinase using L-DOPA as substrate assessed as diphenolase activity
T1 sequence (O42713 whole entry): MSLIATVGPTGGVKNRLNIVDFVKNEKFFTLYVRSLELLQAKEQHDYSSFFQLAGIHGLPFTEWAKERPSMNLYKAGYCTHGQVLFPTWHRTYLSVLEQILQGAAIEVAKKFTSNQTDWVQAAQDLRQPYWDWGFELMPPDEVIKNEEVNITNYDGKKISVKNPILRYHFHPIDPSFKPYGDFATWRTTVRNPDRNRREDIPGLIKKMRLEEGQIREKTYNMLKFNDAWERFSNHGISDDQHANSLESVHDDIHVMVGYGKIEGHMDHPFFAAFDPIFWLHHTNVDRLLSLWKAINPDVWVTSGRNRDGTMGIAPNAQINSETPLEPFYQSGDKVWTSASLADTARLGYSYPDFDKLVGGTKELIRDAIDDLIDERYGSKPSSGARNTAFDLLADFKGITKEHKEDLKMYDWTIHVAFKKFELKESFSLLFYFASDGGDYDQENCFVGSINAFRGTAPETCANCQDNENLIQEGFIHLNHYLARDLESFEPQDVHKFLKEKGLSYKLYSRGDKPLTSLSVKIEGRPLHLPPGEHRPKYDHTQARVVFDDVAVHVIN

Tyrosinase [2] = biological target: T1, Tyrosinase; test: Inhibition of mushroom tyrosinase using L-tyrosine as substrate assessed as monophenolase activity

- IC50 (Tyrosinase [1]): 43.3 nM
- IC50 (Tyrosinase [2]): 280 nM
Structure (SMILES): O=C(/C=C/c1ccc(O)cc1O)c1ccco1
